{
  "source": "PubChem BioAssay (EPA / NIEHS)",
  "note": "Only a part is listed here, and it is no random draw. Inconclusive results are not listed. Calls of active or inactive are those of the source. The calls were made as follows: active = hit-call score of the fitted dose curve at least 0.9, where 1 is the maximum; inconclusive = response in the unintended direction; inactive = score below 0.9.",
  "data": [
    {"experiment": "Tanguay_ZF_120hpf_SNOU_legacy: (Legacy) Oregon State University Tanguay Lab 120 Hour Post-fertilization zebrafish Assay for Snout Malformation (AID 2283637)", "summary_of_the_method": "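Tropical 5D wild-type zebrafish embryos, dechorionated with pronase at 4 hpf, were exposed singly from 6 hpf to 120 hpf statically at 28C in 0.64% DMSO. Snout malformation was scored present/absent by brightfield microscopy, fitted against DMSO.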", "values": [
      {"smiles": "Cc1cc([N+](=O)[O-])cc([N+](=O)[O-])c1O", "outcome": "inactive"},
      {"smiles": "O=C1C2CC=CCC2C(=O)N1SC(Cl)(Cl)C(Cl)Cl", "note": "(stereo not drawn)", "outcome": "inactive"},
      {"smiles": "CN(C(=O)Cc1cccc2occc12)[C@H]1CC[C@@]2(CCCO2)C[C@@H]1N1CCCC1", "outcome": "inactive"},
      {"smiles": "CC(C)OP(=S)(OC(C)C)SCCNS(=O)(=O)c1ccccc1", "outcome": "inactive"}
    ]},
    {"experiment": "Tanguay_ZF_120hpf_OTIC_legacy: (Legacy) Oregon State University Tanguay Lab 120 Hour Post-fertilization zebrafish Assay for Otic Vesicle Malformation (AID 2283639)", "summary_of_the_method": "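Tropical 5D wild-type zebrafish embryos statically exposed in 0.64% DMSO at 28C until 120 hpf; 5uM trimethyltin chloride as positive control. Otic vesicle malformation scored present/absent by brightfield; dead embryos not scored; gain fitted versus DMSO.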", "values": [
      {"smiles": "Cc1cc([N+](=O)[O-])cc([N+](=O)[O-])c1O", "outcome": "inactive"},
      {"smiles": "O=C1C2CC=CCC2C(=O)N1SC(Cl)(Cl)C(Cl)Cl", "note": "(stereo not drawn)", "outcome": "inactive"},
      {"smiles": "CN(C(=O)Cc1cccc2occc12)[C@H]1CC[C@@]2(CCCO2)C[C@@H]1N1CCCC1", "outcome": "inactive"},
      {"smiles": "CC(C)OP(=S)(OC(C)C)SCCNS(=O)(=O)c1ccccc1", "outcome": "inactive"}
    ]},
    {"experiment": "Tanguay_ZF_120hpf_PE_legacy: (Legacy) Oregon State University Tanguay Lab 120 Hour Post-fertilization zebrafish Assay for Pericardial Edema (AID 2283640);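 as to AC50: potency for increased incidence of pericardial edema versus DMSO baseline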", "summary_of_the_method": "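Read-out is the presence or absence of pericardial edema at 120 hpf under brightfield, with gain of signal fitted against DMSO controls. Larvae (5D wild-type) were statically exposed at 28C with 0.64% final DMSO.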", "values": [
      {"smiles": "Cc1cc([N+](=O)[O-])cc([N+](=O)[O-])c1O", "AC50": "active: 5.12 µM"},
      {"smiles": "O=C1C2CC=CCC2C(=O)N1SC(Cl)(Cl)C(Cl)Cl", "note": "(stereo not drawn)", "outcome": "inactive"},
      {"smiles": "CN(C(=O)Cc1cccc2occc12)[C@H]1CC[C@@]2(CCCO2)C[C@@H]1N1CCCC1", "outcome": "inactive"},
      {"smiles": "CC(C)OP(=S)(OC(C)C)SCCNS(=O)(=O)c1ccccc1", "outcome": "inactive"}
    ]},
    {"experiment": "Tanguay_ZF_120hpf_SOMI_legacy: (Legacy) Oregon State University Tanguay Lab 120 Hour Post-fertilization zebrafish Assay for Somite Malformation (AID 2283647)", "summary_of_the_method": "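5D WT zebrafish; chorion removed 4 hpf; 1 embryo/well from 6 hpf; static exposure to 120 hpf, 28C, 0.64% DMSO final. Endpoint: somite malformation, binary, brightfield. Mortality excluded.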", "values": [
      {"smiles": "O=C1C2CC=CCC2C(=O)N1SC(Cl)(Cl)C(Cl)Cl", "note": "(stereo not drawn)", "outcome": "inactive"},
      {"smiles": "CN(C(=O)Cc1cccc2occc12)[C@H]1CC[C@@]2(CCCO2)C[C@@H]1N1CCCC1", "outcome": "inactive"},
      {"smiles": "CC(C)OP(=S)(OC(C)C)SCCNS(=O)(=O)c1ccccc1", "outcome": "inactive"}
    ]},
    {"experiment": "Tanguay_ZF_120hpf_CFIN_legacy: (Legacy) Oregon State University Tanguay Lab 120 Hour Post-fertilization zebrafish Assay for Caudal Fin Malformation (AID 2283649)", "experimental": "Tanguay_ZF_120hpf_legacy is a whole embryo, multiplexed endpoint assay using zebrafish larvae exposed for 120 hours post fertilization on a 96-well plate.Tanguay_ZF_120hpf_CFIN_legacy is one of one assay component(s) measured or calculated from the Tanguay_ZF_120hpf_legacy assay. It is designed to make measurements of zebrafish development as detected with brightfield microscopy of developing zebrafish embryos.Data from the assay component Tanguay_ZF_120hpf_CFIN_legacy was analyzed into 1 assay endpoints. This assay endpoint, Tanguay_ZF_120hpf_CFIN_legacy, was analyzed in the positive analysis fitting direction relative to DMSO as the negative control and baseline of activity. Using a type of morphology reporter, gain-of-signal activity can be used to understand changes in developmentals as they relate to the whole embryo. To generalize the intended target to other relatable targets, this assay endpoint is annotated to the zebrafish development intended target family, where the subfamily is caudal fin morphogenesis.\nZebrafish husbandry: Tropical 5D wild-type adult zebrafish were housed in at an approximate density of 1000 per 100 gallon tank at the Sinnhuber Aquatic Research Laboratory, Oregon State University, Corvallis, OR. Each tank was kept at standard laboratory conditions of 28C on a 14-h light/10-h dark photoperiod in fish water consisting of reverse osmosis water supplemented with a commercially available salt (Instant Ocean). Spawning funnels were placed into the tanks the night prior, and embryos were collected and staged. To increase bioavailability, the chorion was enzymatically removed using pronase (63.6mg/ml, >/= 3.5U/mg, Sigma-Aldrich: P5147) at 4 hours post fertilization (hpf) using a custom automated dechorionator.Chemical exposures: Six hpf dechorionated embryos were placed 1 embryo per well in a 96-well plate prefilled with 90 ul of EM using automated embryo placement systems (AEPS). Ten microliters of each row of dilution plate 2 was added to 2 exposure plates. The final DMSO concentration used was 0.64% (vol/vol). […] At 24 hpf, embryos were assessed for photomotor response using a custom photomotor response analysis tool (PRAT) and for developmental toxicity endpoints (MO24: mortality at 24 hpf, DP: developmental progression, SM: spontaneous movement, and NC: notochord distortion). At 120 hpf, locomotor activity was measured using Viewpoint Zebralab and assessed for 18 endpoints. Zebrafish acquisition and analysis program (ZAAP), a custom program designed to inventory, acquire, and manage zebrafish data, was used to collect developmental endpoints as either present or absent (i.e., binary responses were recorded). If mortality occurred for an embryo (at either 24 or 120 hpf), the non-mortality endpoints were not measured.", "values": [
      {"smiles": "Cc1cc([N+](=O)[O-])cc([N+](=O)[O-])c1O", "AC50": "active: 4.94 µM"},
      {"smiles": "O=C1C2CC=CCC2C(=O)N1SC(Cl)(Cl)C(Cl)Cl", "note": "(stereo not drawn)", "outcome": "inactive"},
      {"smiles": "CN(C(=O)Cc1cccc2occc12)[C@H]1CC[C@@]2(CCCO2)C[C@@H]1N1CCCC1", "outcome": "inactive"},
      {"smiles": "CC(C)OP(=S)(OC(C)C)SCCNS(=O)(=O)c1ccccc1", "outcome": "inactive"}
    ]},
    {"experiment": "Tanguay_ZF_120hpf_SWIM_legacy: (Legacy) Oregon State University Tanguay Lab 120 Hour Post-fertilization zebrafish Assay for Swim Bladder Malformation (AID 2283654);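 also: swim bladder malformation in each larva scored yes or no under brightfield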", "summary_of_the_method": "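Dechorionated Tropical 5D wild-type embryos, placed singly from 6 hpf, were statically exposed at 28C to 120 hpf with 0.64% DMSO final; swim bladder malformation was scored present/absent by brightfield microscopy, gain of signal relative to DMSO controls.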", "values": [
      {"smiles": "Cc1cc([N+](=O)[O-])cc([N+](=O)[O-])c1O", "outcome": "inactive"},
      {"smiles": "CN(C(=O)Cc1cccc2occc12)[C@H]1CC[C@@]2(CCCO2)C[C@@H]1N1CCCC1", "outcome": "inactive"},
      {"smiles": "CC(C)OP(=S)(OC(C)C)SCCNS(=O)(=O)c1ccccc1", "outcome": "inactive"}
    ]},
    {"experiment": "Tanguay_ZF_120hpf_TRUN_legacy: (Legacy) Oregon State University Tanguay Lab 120 Hour Post-fertilization zebrafish Assay for Truncated Body (AID 2283655)", "summary_of_the_method": "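5D wild-type larvae; pronase dechorionation; static exposure 6→120 hpf, 28C; DMSO 0.64% final; 5uM trimethyltin chloride positive control. Readout: presence/absence of truncated body, analyzed relative to DMSO.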", "values": [
      {"smiles": "O=C1C2CC=CCC2C(=O)N1SC(Cl)(Cl)C(Cl)Cl", "note": "(stereo not drawn)", "outcome": "inactive"},
      {"smiles": "CN(C(=O)Cc1cccc2occc12)[C@H]1CC[C@@]2(CCCO2)C[C@@H]1N1CCCC1", "outcome": "inactive"},
      {"smiles": "CC(C)OP(=S)(OC(C)C)SCCNS(=O)(=O)c1ccccc1", "outcome": "inactive"}
    ]},
    {"experiment": "Tanguay_ZF_120hpf_NC_legacy: (Legacy) Oregon State University Tanguay Lab 120 Hour Post-fertilization zebrafish Assay for Notochord and Tail Malformation (AID 2283656)", "summary_of_the_method": "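Dechorionated Tropical 5D wild-type zebrafish embryos, one per well from 6 hpf, statically exposed to 120 hpf at 28C in 0.64% DMSO final. Notochord distortion scored present/absent by brightfield; dead embryos excluded.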", "values": [
      {"smiles": "O=C1C2CC=CCC2C(=O)N1SC(Cl)(Cl)C(Cl)Cl", "note": "(stereo not drawn)", "outcome": "inactive"},
      {"smiles": "CN(C(=O)Cc1cccc2occc12)[C@H]1CC[C@@]2(CCCO2)C[C@@H]1N1CCCC1", "outcome": "inactive"},
      {"smiles": "CC(C)OP(=S)(OC(C)C)SCCNS(=O)(=O)c1ccccc1", "outcome": "inactive"}
    ]}
  ]
}
